Test results from ChEMBL document CHEMBL4270567, “Multi-target-directed ligands for treating Alzheimer's disease: Butyrylcholinesterase inhibitors displaying antioxidant and neuroprotective activities” (Eur J Med Chem, 2018).

Chains of the proteins cited; added tags and fusions are not shown.
UniProt P06276, whole entry: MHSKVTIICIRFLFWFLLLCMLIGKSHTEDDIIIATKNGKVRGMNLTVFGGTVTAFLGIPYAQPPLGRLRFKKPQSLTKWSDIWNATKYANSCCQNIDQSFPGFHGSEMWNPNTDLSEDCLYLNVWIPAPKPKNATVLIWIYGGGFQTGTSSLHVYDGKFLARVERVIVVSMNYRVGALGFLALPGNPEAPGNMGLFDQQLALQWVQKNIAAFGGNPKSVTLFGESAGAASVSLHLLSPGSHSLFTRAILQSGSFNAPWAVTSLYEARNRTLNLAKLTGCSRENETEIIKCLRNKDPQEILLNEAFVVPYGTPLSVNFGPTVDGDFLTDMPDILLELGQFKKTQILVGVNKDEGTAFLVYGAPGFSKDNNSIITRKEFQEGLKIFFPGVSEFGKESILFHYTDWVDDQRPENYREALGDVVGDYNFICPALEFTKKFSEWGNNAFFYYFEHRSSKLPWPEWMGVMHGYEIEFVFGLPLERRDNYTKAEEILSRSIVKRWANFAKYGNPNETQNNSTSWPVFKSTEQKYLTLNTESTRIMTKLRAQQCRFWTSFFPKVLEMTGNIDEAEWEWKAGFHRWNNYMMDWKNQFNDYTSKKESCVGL

Experiments:
Cholinesterase [1] = biological target: T1, Cholinesterase (Homo sapiens, UniProt P06276); test: Competitive inhibition of human BChE using butyrylthiocholine iodide as substrate preincubated for 5 mins followed by substrate addition and measured for 1 min by Lineweaver Burk plot analysis
Cholinesterase [2] = biological target: T1, Cholinesterase

Molecule CN(C)CCN(CC1CCCN(C2Cc3ccccc3C2)C1)C(=O)c1ccc2cccnc2c1O (racemic) has a Ki (Cholinesterase [1]) of 1.71 nM and an IC50 (Cholinesterase [2]) of 13.8 nM.
